{
  "source": "ChEMBL document CHEMBL4000248",
  "about": "“Synthesis and biological evaluation of cyclic imides incorporating benzenesulfonamide moieties as carbonic anhydrase I, II, IV and IX inhibitors” (Bioorg Med Chem, 2017)",
  "target": "Carbonic anhydrase 9 (Homo sapiens, UniProt Q16790)",
  "assay": "Inhibition of recombinant human carbonic anhydrase 9 incubated for 10 mins prior to testing by stopped flow CO2 hydrase assay",
  "data": [
    {"smiles": "NS(=O)(=O)c1ccc(CCN2C(=O)c3c(Cl)c(Cl)c(Cl)c(Cl)c3C2=O)cc1", "values": [
      {"measurement": "Ki", "result": 0.284, "unit": "µM"}
    ]}
  ]
}
